Test results taken from ChEMBL document CHEMBL5576124, “Discovery of an Exceptionally Orally Bioavailable and Potent HPK1 PROTAC with Enhancement of Antitumor Efficacy of Anti-PD-L1 Therapy” (J Med Chem, 2024).

Assay: Selectivity ratio of IC50 for inhibition of HPK1 (unknown origin) to IC50 for inhibition of GLK (unknown origin)

Cc1cc(-c2c[nH]c3ncc(-c4ccc(C5CCN(C6CN(c7ccc8c(c7)C(=O)N(C7CCC(=O)NC7=O)C8=O)C6)CC5)cc4)nc23)ccc1C(=O)N(C)C (stereo unspecified)
Ratio IC50: 16
